Measurements: patent US12186329B2 (President and Fellows of Harvard College, priority 2018, dated 2025)

How the values were obtained:
TGR5 [1] = molecular target: T1, TGR5 (Homo sapiens, UniProt Q8TDU6); test: TGR5 activation in L-cells (luciferase reporter), dose response; format: cell-based; set-up: endogenous in cells; host or cells: NCI-H716 (human intestinal L-cells, ATCC); settings: read-out: EC50 of TGR5 activation in L-cells (dose response curve)
T1 sequence (Q8TDU6 1-330): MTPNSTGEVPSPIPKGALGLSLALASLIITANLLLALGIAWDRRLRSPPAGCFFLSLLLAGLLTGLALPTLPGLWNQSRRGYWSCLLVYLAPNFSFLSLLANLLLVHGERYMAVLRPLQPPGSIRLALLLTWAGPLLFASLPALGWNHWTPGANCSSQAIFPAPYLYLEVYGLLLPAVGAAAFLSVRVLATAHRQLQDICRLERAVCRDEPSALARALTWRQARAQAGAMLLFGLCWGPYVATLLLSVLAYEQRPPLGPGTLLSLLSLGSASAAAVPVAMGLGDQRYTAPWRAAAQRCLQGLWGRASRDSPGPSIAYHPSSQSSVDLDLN
Protocol: (§1) Plasmids and transient transfections. […] For luciferase reporter assays for TGR5 activation, the pGL4.29[luc2P/CRE/Hygro] plasmid (Promega Corporation), and the pGL4.74[hRluc/CMV] plasmid (Promega Corporation) were used at concentration of 2 μg/ml and 0.05 μg/ml of media respectively. […] Plasmid transfection were performed in antibiotic-free media (MEM for HEK293T and RPMI for Matrigel-attached NCI-H716 cells) with 10% FBS. […] Cells were harvested the next day for luciferase assay.
(§2) Luciferase reporter assay. Luminescence was measured using the Dual-Luciferase Reporter Assay System (Promega Corporation) according to manufacturer's instructions. Cells were washed gently with PBS and lysed in PLB from the kit. Matrigel-attached cells were scraped in PLB. […] Luminescence was normalized to Renilla luciferase activity and percentage relative luminescence was calculated compared to DMSO control.

TGR5 [2] = molecular target: T1, TGR5; settings: for TGR5 activation in HEK293T cells: compared with TDCA
Protocol: as §1, §2

For C[C@H](CCC(=O)O)[C@H]1CC[C@H]2[C@@H]3[C@H](OS(=O)(=O)O)C[C@@H]4C[C@H](O)CC[C@]4(C)[C@H]3C[C@H](O)[C@]12C [CA7S, cholic acid-7-sulfate], the EC50 (TGR5 [1]) was 13 nM, the “TGR5 activation in HEK293T cells” value (TGR5 [2]) was “activated human TGR5 in a dose-dependent manner and to a similar extent as TDCA” and the “TGR5 activation in HEK293T cells” value (TGR5 [2]; listed as Cholic acid-7-sulfate) was “induces TGR5 activation in HEK293T cells”. For the same molecule, the EC50 (TGR5 [2]; read-out: EC50 of human TGR5 activation, HEK293T cells) was 170 nM.

Read-outs that look alike come from different tables or passages of the source.
